Test results as given in patent US8710233B2 (Gruenenthal GmbH, priority 2005, dated 2014).
Where two headings read alike, the source gives them in different places.

The chains behind the UniProt entries cited, without tags or fusion partners.
UniProt Q8NER1, whole entry: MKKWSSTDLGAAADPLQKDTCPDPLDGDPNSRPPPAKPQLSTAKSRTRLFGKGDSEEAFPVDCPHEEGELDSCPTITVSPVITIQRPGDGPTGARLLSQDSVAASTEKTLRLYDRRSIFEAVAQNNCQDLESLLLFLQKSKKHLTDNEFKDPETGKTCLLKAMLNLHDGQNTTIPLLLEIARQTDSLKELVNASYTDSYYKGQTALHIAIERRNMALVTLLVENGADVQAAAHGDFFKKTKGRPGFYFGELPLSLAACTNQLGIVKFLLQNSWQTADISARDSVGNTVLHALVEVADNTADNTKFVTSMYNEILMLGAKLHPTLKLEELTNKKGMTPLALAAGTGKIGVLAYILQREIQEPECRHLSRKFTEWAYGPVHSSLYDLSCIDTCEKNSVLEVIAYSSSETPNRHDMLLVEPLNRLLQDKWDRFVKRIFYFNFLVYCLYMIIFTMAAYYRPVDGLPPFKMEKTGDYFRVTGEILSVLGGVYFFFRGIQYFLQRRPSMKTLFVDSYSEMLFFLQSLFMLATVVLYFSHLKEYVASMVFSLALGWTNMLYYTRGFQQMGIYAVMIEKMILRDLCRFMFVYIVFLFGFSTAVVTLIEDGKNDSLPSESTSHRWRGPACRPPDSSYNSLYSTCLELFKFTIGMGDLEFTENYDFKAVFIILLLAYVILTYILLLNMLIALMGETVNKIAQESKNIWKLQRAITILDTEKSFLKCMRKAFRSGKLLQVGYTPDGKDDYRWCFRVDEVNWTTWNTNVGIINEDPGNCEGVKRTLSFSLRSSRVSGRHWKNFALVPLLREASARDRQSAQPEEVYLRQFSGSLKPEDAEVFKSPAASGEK
UniProt O35433, whole entry: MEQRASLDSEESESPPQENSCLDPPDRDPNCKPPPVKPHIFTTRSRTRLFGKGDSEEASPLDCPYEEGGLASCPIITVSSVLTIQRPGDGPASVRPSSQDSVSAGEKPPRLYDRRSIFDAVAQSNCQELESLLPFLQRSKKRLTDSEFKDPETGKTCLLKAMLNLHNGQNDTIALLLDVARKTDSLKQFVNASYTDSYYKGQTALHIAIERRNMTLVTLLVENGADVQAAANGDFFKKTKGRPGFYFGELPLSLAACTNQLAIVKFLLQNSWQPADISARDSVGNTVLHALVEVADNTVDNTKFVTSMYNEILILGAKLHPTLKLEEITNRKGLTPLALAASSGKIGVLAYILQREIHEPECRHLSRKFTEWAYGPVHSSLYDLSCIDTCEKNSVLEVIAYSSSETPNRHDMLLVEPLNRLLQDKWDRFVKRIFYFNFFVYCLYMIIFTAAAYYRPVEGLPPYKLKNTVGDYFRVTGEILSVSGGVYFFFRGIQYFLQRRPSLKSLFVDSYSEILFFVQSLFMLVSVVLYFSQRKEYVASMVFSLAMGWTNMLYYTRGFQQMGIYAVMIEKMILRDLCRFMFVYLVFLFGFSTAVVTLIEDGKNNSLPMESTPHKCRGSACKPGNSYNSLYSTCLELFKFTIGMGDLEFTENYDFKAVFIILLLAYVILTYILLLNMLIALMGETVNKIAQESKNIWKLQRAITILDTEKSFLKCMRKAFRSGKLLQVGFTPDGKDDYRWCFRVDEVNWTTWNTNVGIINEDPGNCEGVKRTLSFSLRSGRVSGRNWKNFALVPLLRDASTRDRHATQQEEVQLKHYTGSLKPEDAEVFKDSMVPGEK

Experiments:
Type in all cases: cell-based
VR1/TRPV1 receptor = VR1/TRPV1 receptor (Homo sapiens, UniProt Q8NER1); assay: IC50 (human) after pH stimulus
vanilloid receptor (VR1) = biological target: T1, vanilloid receptor (VR1) (Homo sapiens, UniProt Q8NER1); assay: FLIPR Ca2+ influx assay on CHO K1 cells transfected with the VR1 gene (pharmacological method II)
T1 construct: expressed in transfected cells; host or cells: CHO K1 cells (ECACC), stably transfected
Excerpt: In this FLIPR assay, the influx of Ca^2+ is quantified with the assistance of a Ca^2+-sensitive dye (type Fluo-4, Molecular Probes Europe BV, Leiden, Netherlands) in a Fluorescent Imaging Plate Reader (FLIPR, Molecular Devices, Sunnyvale, USA) as described below.
II. Functional Investigations on the Vanilloid Receptor (VR1)
The agonistic or antagonistic action of the substances to be investigated on the vanilloid receptor (VR1) may also be determined with the following assay. According to this assay, the influx of Ca^2+ through the channel is quantified with the assistance of a Ca^2+-sensitive dye (type Fluo-4, Molecular Probes Europe BV, Leiden, Netherlands) in a Fluorescent Imaging Plate Reader (FLIPR, Molecular Devices, Sunnyvale, USA).
Chinese hamster ovary cells (CHO K1 cells, European Collection of Cell Cultures (ECACC), Great Britain) are stably transfected with the VR1 gene. For functional investigations, these cells are plated out onto poly-D-lysine-coated, black 96 well plates with a clear bottom (BD Biosciences, Heidelberg, Germany) at a density of 25,000 cells/well. The cells are incubated overnight at 37° C. and 5% CO2 in a culture medium (Ham's Nutrient Mixture F12, 10 vol. % FCS (foetal calf serum), 18 μg/mL L-proline). On the following day, the cells are incubated with Fluo-4 (Fluo-4 2 μM, Pluronic F127 0.01 vol. %, Molecular Probes in HBSS (Hank's buffered saline solution), Gibco Invitrogen GmbH, Karlsruhe, Germany) for 30 minutes at 37° C. The plates are then washed 3 times with HBSS buffer and, after a further 15 minutes' incubation at room temperature, used for […] measurement in the FLIPR. […] Quantification proceeds by measuring the highest fluorescence intensity (FC, fluorescence counts) over time.
The FLIPR protocol comprises 2 additions of substance. […] After 5 minutes' incubation, 100 nM of capsaicin are added and the influx of Ca^2+ is again determined.
The percentage inhibition in comparison with the maximum achievable inhibition with 10 μM capsaicin is calculated.

[1] = biological target: T2, vanilloid receptor 1 (VR1/TRPV1) of the rat species (Rattus norvegicus, UniProt O35433); assay: FLIPR Ca2+ influx assay on rat dorsal root ganglia cells (pharmacological method I); conditions: table 4; capsaicin; read-out: Ki (rat) Cap.
T2 construct: The spinal column is removed from decapitated rats; from tissue; host or cells: primary cells dissociated from rat dorsal root ganglia
Excerpt: I. Functional Investigation of the Vanilloid Receptor 1 (VR1/TRPV1 Receptor)
The agonistic or antagonistic action of the substances to be investigated on the vanilloid receptor 1 (VR1/TRPV1) of the rat species may be determined by the following assay. According to this assay, the influx of Ca^2+ through the receptor channel is quantified with the assistance of a Ca^2+-sensitive dye (type Fluo-4, Molecular Probes Europe BV, Leiden, Netherlands) in a Fluorescent Imaging Plate Reader (FLIPR, Molecular Devices, Sunnyvale, USA). […]
The DRGs are in each case repeatedly suspended, drawn by means of a syringe through no. […] The resultant pellet is in each case resuspended in 250 μL of complete medium and the cell count determined. […]
The cells are then loaded with 2 μM Fluo-4 and 0.01 vol. % Pluronic F127 (Molecular Probes Europe BV, Leiden, Netherlands) in HBSS buffer (Hank's buffered saline solution, Gibco Invitrogen GmbH, Karlsruhe, Germany) for 30 min at 37° C., washed 3× with HBSS buffer and, after a further 15 minutes' incubation at room temperature, used for Ca^2+ measurement in the FLIPR assay. […] Quantification proceeds by measuring the highest fluorescence intensity (FC, fluorescence counts) over time.
The FLIPR protocol comprises 2 additions of substance. […] After 5 minutes' incubation, 100 nM of capsaicin are added and the influx of Ca^2+ is again determined. […]

[2] = table 4, capsaicin, read-out: Ki (human) Cap.

IC50 (VR1/TRPV1 receptor; table 4) [nM] | Ki (vanilloid receptor (VR1); [2]) [nM] | Ki [1] [nM] | Structure (SMILES) | IC50 (VR1/TRPV1 receptor; Table 2) [nM] | Ki (vanilloid receptor (VR1); Table 2, displacement of capsaicin (100 nM), Cheng-Prusoff, read-out: Ki (human)) [nM]
12.5 | 0.7 | – | CC(C(=O)NCc1ccc(C(F)(F)F)nc1N1CCC(c2ccccc2)CC1)c1ccc(NS(C)(=O)=O)c(F)c1 (stereo not shown) [Example 137] | – | –
– | – | – | CCCCOc1nc(C(F)(F)F)ccc1CNC(=O)C(C)c1ccc(NS(C)(=O)=O)c(F)c1 (stereo not shown) [Example 19, N-((2-butoxy-6-(trifluoromethyl)pyridin-3-yl)methyl)-2-(3-fluoro-4-(methylsulfonamido)phenyl)propanamide] | 31 | 0.3
63 | 0.7 | – | CC(C(=O)NCc1ccc(C(F)(F)F)nc1C=CC(C)(C)C)c1ccc(NS(C)(=O)=O)c(F)c1 (stereo not shown) [Example 274, N-[2-(3,3-dimethyl-but-1-enyl)-6-trifluoromethyl-pyridin-3-ylmethyl]-2-(3-fluoro-4-methylsulfonamido-phenyl)-propionamide] | – | –
– | – | 0.5 | CC(C(=O)NCc1ccc(C(F)(F)F)nc1OCc1ccccc1)c1ccc(NS(C)(=O)=O)c(F)c1 (stereo not shown) [Example 106, N-(2-benzyloxy-6-trifluoromethyl-pyridin-3-ylmethyl)-2-(3-fluoro-4-methylsulfonamido-phenyl)-propionamide] | – | –
